Measurements as given in PMC5502072, “Safety, tolerability and pharmacokinetics of the fibroblast growth factor receptor inhibitor AZD4547 in Japanese patients with advanced solid tumours: a Phase I study” (Investigational New Drugs, 2017).

Experiment: Safety and tolerability (AEs by CTCAE v4.0, DLTs, laboratory, ECG/ECHO, ophthalmic) in Phase I study NCT01213160
Format: in vivo, human
Method: A ‘rolling six’ design was used, with a minimum of three evaluable patients per cohort. If one patient experienced a dose-limiting toxicity (DLT), additional patients were enrolled up to a maximum of six evaluable patients. DLTs were evaluated during the washout period and the first 21-day treatment schedule. […] If two or more evaluable patients experienced a DLT, this dosing level was considered as non-tolerable. It was planned that the maximum tolerated dose (MTD) would be defined either as the dosing level below the non-tolerated dose or such that a dose between the non-tolerated dose and the last tolerated dose may be investigated. Patients who tolerated AZD4547 treatment and received clinical benefit were permitted to continue treatment until they experienced progressive disease or withdrew consent.
Safety and tolerability were assessed during study treatment and until 28 days after the final dose. Adverse events (AEs) were evaluated according to CTCAE (version 4.0), and dose interruptions and reductions were recorded. Laboratory findings and vital signs were analysed. Cardiac monitoring (echocardiogram [ECHO] and ECG) and ophthalmic assessments were also conducted.

AZD4547
Median change in phosphate levels from baseline (80 mg bid cohort (combined from Parts A and B)): –0.16 to 0.79 mmol/L
Median change in phosphate levels from baseline (160 mg qd cohort): –0.29 to 0.72 mmol/L
Tolerability (Japanese patients, whole study): well tolerated
Detachment of retinal pigment epithelium, patients (Part A): 23.3%
Diarrhoea, patients (Part A): 40.0%
Dry mouth, patients (Part A): 33.3%
Dry skin, patients (Part A): 30.0%
Dysgeusia, patients (Part A): 46.7%
Hyperphosphataemia, patients (Part A): 36.7%
Malaise, patients (Part A): 20.0%
Nail discolouration, patients (Part A): 20.0%
Nausea, patients (Part A): 26.7%
Patients with AE of CTCAE grade ≥3 judged causally related to study treatment (Part A): 3.3%
Patients with SAEs (Part A): 6.7%
Patients with dose interruptions following AEs (Part A): 30.0%
Patients with treatment-related increases in blood phosphate levels (Part A): 36.7%
Pruritus, patients (Part A): 20.0%
Stomatitis, patients (Part A): 40.0%
Vomiting, patients (Part A): 20.0%
AE leading to discontinuation, patients (Part A (9/30)): 30.0%
Decreased appetite, AE of any grade (Part A, 40 mg bid (N = 3)): 1 (33.3) n (%)
Decreased appetite, CTCAE grade ≥3 event (first line, r20) (Part A, 40 mg bid (N = 3)): 0 (0) n (%)
Decreased appetite, CTCAE grade ≥3 event (second line, r24) (Part A, 40 mg bid (N = 3)): 0 (0) n (%)
Decreased appetite, SAE grade ≥3 event (Part A, 40 mg bid (N = 3)): 0 (0) n (%)
Detachment of retinal pigment epithelium, AE of any grade (Part A, 40 mg bid (N = 3)): 0 (0) n (%)
Diarrhoea, AE of any grade (Part A, 40 mg bid (N = 3)): 0 (0) n (%)
Dry mouth, AE of any grade (Part A, 40 mg bid (N = 3)): 0 (0) n (%)
Dry skin, AE of any grade (Part A, 40 mg bid (N = 3)): 1 (33.3) n (%)
Dysgeusia, AE of any grade (Part A, 40 mg bid (N = 3)): 0 (0) n (%)
Hyperphosphataemia, AE of any grade (Part A, 40 mg bid (N = 3)): 0 (0) n (%)
Hypoglycaemia, CTCAE grade ≥3 event (Part A, 40 mg bid (N = 3)): 0 (0) n (%)
Increased alanine aminotransferase, CTCAE grade ≥3 event (Part A, 40 mg bid (N = 3)): 0 (0) n (%)
Malaise, AE of any grade (Part A, 40 mg bid (N = 3)): 0 (0) n (%)
Nausea, AE of any grade (Part A, 40 mg bid (N = 3)): 1 (33.3) n (%)
Nausea, CTCAE grade ≥3 event (Part A, 40 mg bid (N = 3)): 0 (0) n (%)
Nausea, SAE grade ≥3 event (Part A, 40 mg bid (N = 3)): 0 (0) n (%)
Neutropenia, CTCAE grade ≥3 event (Part A, 40 mg bid (N = 3)): 0 (0) n (%)
Patients with AE of any grade (Part A, 40 mg bid (N = 3)): 3 (100) n (%)
Patients with CTCAE grade ≥3 event (Part A, 40 mg bid (N = 3)): 0 (0) n (%)
Patients with SAE grade ≥3 event (Part A, 40 mg bid (N = 3)): 0 (0) n (%)
Pneumonia, CTCAE grade ≥3 event (Part A, 40 mg bid (N = 3)): 0 (0) n (%)
Stomatitis, AE of any grade (Part A, 40 mg bid (N = 3)): 1 (33.3) n (%)
Stomatitis, CTCAE grade ≥3 event (Part A, 40 mg bid (N = 3)): 0 (0) n (%)
Stomatitis, SAE grade ≥3 event (Part A, 40 mg bid (N = 3)): 0 (0) n (%)
Vomiting, AE of any grade (Part A, 40 mg bid (N = 3)): 0 (0) n (%)
Decreased appetite, AE of any grade (Part A, 80 mg bid (N = 6)): 1 (16.7) n (%)
Decreased appetite, CTCAE grade ≥3 event (first line, r20) (Part A, 80 mg bid (N = 6)): 1 (16.7) n (%)
Decreased appetite, CTCAE grade ≥3 event (second line, r24) (Part A, 80 mg bid (N = 6)): 1 (16.7) n (%)
Decreased appetite, SAE grade ≥3 event (Part A, 80 mg bid (N = 6)): 0 (0) n (%)
Detachment of retinal pigment epithelium, AE of any grade (Part A, 80 mg bid (N = 6)): 0 (0) n (%)
Diarrhoea, AE of any grade (Part A, 80 mg bid (N = 6)): 2 (33.3) n (%)
Dry mouth, AE of any grade (Part A, 80 mg bid (N = 6)): 3 (50.0) n (%)
Dry skin, AE of any grade (Part A, 80 mg bid (N = 6)): 2 (33.3) n (%)
Dysgeusia, AE of any grade (Part A, 80 mg bid (N = 6)): 2 (33.3) n (%)
Hyperphosphataemia, AE of any grade (Part A, 80 mg bid (N = 6)): 1 (16.7) n (%)
Hypoglycaemia, CTCAE grade ≥3 event (Part A, 80 mg bid (N = 6)): 0 (0) n (%)
Increased alanine aminotransferase, CTCAE grade ≥3 event (Part A, 80 mg bid (N = 6)): 1 (16.7) n (%)
Malaise, AE of any grade (Part A, 80 mg bid (N = 6)): 2 (33.3) n (%)
Nausea, AE of any grade (Part A, 80 mg bid (N = 6)): 2 (33.3) n (%)
Nausea, CTCAE grade ≥3 event (Part A, 80 mg bid (N = 6)): 2 (33.3) n (%)
Nausea, SAE grade ≥3 event (Part A, 80 mg bid (N = 6)): 0 (0) n (%)
Neutropenia, CTCAE grade ≥3 event (Part A, 80 mg bid (N = 6)): 2 (33.3) n (%)
Patients with AE of any grade (Part A, 80 mg bid (N = 6)): 6 (100) n (%)
Patients with CTCAE grade ≥3 event (Part A, 80 mg bid (N = 6)): 3 (50.0) n (%)
Patients with SAE grade ≥3 event (Part A, 80 mg bid (N = 6)): 0 (0) n (%)
Pneumonia, CTCAE grade ≥3 event (Part A, 80 mg bid (N = 6)): 0 (0) n (%)
Stomatitis, AE of any grade (Part A, 80 mg bid (N = 6)): 4 (66.7) n (%)
Stomatitis, CTCAE grade ≥3 event (Part A, 80 mg bid (N = 6)): 1 (16.7) n (%)
Stomatitis, SAE grade ≥3 event (Part A, 80 mg bid (N = 6)): 0 (0) n (%)
Vomiting, AE of any grade (Part A, 80 mg bid (N = 6)): 2 (33.3) n (%)
Decreased appetite, AE of any grade (Part A, 120 mg bid (N = 6)): 1 (16.7) n (%)
Detachment of retinal pigment epithelium, AE of any grade (Part A, 120 mg bid (N = 6)): 0 (0) n (%)
Diarrhoea, AE of any grade (Part A, 120 mg bid (N = 6)): 5 (83.3) n (%)
Dry mouth, AE of any grade (Part A, 120 mg bid (N = 6)): 2 (33.3) n (%)
Dry skin, AE of any grade (Part A, 120 mg bid (N = 6)): 2 (33.3) n (%)
Dysgeusia, AE of any grade (Part A, 120 mg bid (N = 6)): 5 (83.3) n (%)
Hyperphosphataemia, AE of any grade (Part A, 120 mg bid (N = 6)): 3 (50.0) n (%)
Malaise, AE of any grade (Part A, 120 mg bid (N = 6)): 2 (33.3) n (%)
Nausea, AE of any grade (Part A, 120 mg bid (N = 6)): 1 (16.7) n (%)
Patients with AE of any grade (Part A, 120 mg bid (N = 6)): 6 (100) n (%)
Stomatitis, AE of any grade (Part A, 120 mg bid (N = 6)): 4 (66.7) n (%)
Vomiting, AE of any grade (Part A, 120 mg bid (N = 6)): 2 (33.3) n (%)
Discontinuation for AEs, patients (Part A, 160 mg qd): 6 n
Decreased appetite, AE of any grade (Part A, 160 mg qd (N = 15)): 2 (13.3) n (%)
Decreased appetite, CTCAE grade ≥3 event (first line, r20) (Part A, 160 mg qd (N = 15)): 0 (0) n (%)
Decreased appetite, CTCAE grade ≥3 event (second line, r24) (Part A, 160 mg qd (N = 15)): 0 (0) n (%)
Decreased appetite, SAE grade ≥3 event (Part A, 160 mg qd (N = 15)): 0 (0) n (%)
Diarrhoea, AE of any grade (Part A, 160 mg qd (N = 15)): 5 (33.3) n (%)
Dry mouth, AE of any grade (Part A, 160 mg qd (N = 15)): 5 (33.3) n (%)
Dry skin, AE of any grade (Part A, 160 mg qd (N = 15)): 4 (26.7) n (%)
Hypoglycaemia, CTCAE grade ≥3 event (Part A, 160 mg qd (N = 15)): 0 (0) n (%)
Increased alanine aminotransferase, CTCAE grade ≥3 event (Part A, 160 mg qd (N = 15)): 0 (0) n (%)
Malaise, AE of any grade (Part A, 160 mg qd (N = 15)): 2 (13.3) n (%)
Nausea, AE of any grade (Part A, 160 mg qd (N = 15)): 4 (26.7) n (%)
Nausea, CTCAE grade ≥3 event (Part A, 160 mg qd (N = 15)): 0 (0) n (%)
